In patent US7829297B2, “Treatment of cancers expressing p95 ErbB2” (GlaxoSmithKline LLC, priority 2003, dated 2010):

Legend:
p95^ErbB2 [1] = test: Western blot of p95ErbB2 in BT474 cells; format: cell-based, human; details: 24 hours
[2] = test system: MAPK-Erk1/2 and PI3K-AKT pathways, cyclin D1/2; test: Downstream signaling in BT474 tumor xenografts (Western blot); format: in vivo, mice; details: GW572016 or trastuzumab (10 mg/kg)
Procedure: Equal amounts of protein from tumor xenograft whole cell extracts were separated by SDS-PAGE and steady state protein levels of total and phosphorylated forms Erk1/2 and AKT were assessed by Western blot. Cyclin D1/2 steady state protein levels were also determined. Steady state protein levels of actin confirmed equal loading of protein.

[3] = test system: ErbB2 ECD shedding, breast adenocarcinoma cell lines; details: Molina et al. 2001; cited from earlier work
p95^ErbB2 [4] = test: p95ErbB2 in BT474 tumor xenografts (Western blot); format: in vivo, mice
Text: BT474 tumor xenografts were established in CD-1 nude mice.

Substance: trastuzumab: humanized anti-ErbB2 monoclonal antibody that binds the extracellular domain of ErbB2 [reference compound]
- tyrosine phosphorylation of p95ErbB2 (anti-pTyr mAb) (p95^ErbB2 [1]; 0.5 μM GW572016 or 10 μg/ml trastuzumab): did not have a similar inhibitory effect
- p95ErbB2 steady state protein levels (anti-ErbB2 peptide 1243-1255 mAb) (p95^ErbB2 [1]; 10 μg/ml): reduced
- cyclin D steady state protein levels [2]: had little effect
- p-AKT steady state protein levels [2]: had little effect
- p-Erk1/2 steady state protein levels [2]: had little effect
- ECD shedding from two breast adenocarcinoma cell lines [3]: reduced ECD shedding
- steady state protein levels of total p95ErbB2 (p95^ErbB2 [4]; GW572016 100 mg/kg/dose PO or trastuzumab IP): unchanged
- Y1248 phosphorylation in p95ErbB2 (p95^ErbB2 [4]; GW572016 100 mg/kg/dose or trastuzumab): did not appear to have any marked effect
